Cyclic peptide permeability, from CycPeptMPDB

Values of Townsend et al. 2020, doi:10.26434/chemrxiv.13335941.v1, as listed in CycPeptMPDB.

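The data file gives no further conditions (lipid, pH, time, direction or concentration), and values from different papers need not be comparable. The list need not hold all peptides of the study. Peptides that the database sets to -10, its floor, are left out.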

PAMPA measures passive passage through an artificial lipid membrane. Values are log10 P with P in cm/s, so -5 is more permeable than -7.

* CC(C)C[C@@H]1C(=O)N[C@@H](Cc2ccccc2)C(=O)N2CCC[C@@H]2C(=O)N[C@H](C)C(=O)N(C)[C@@H](CC(C)C)C(=O)N[C@@H](Cc2ccccc2)CC(=O)N2CCC[C@H]2C(=O)N1C: PAMPA -5.55 (log10 cm/s)
* CCCN1CC(=O)N(C)[C@H](CC(C)C)C(=O)N[C@@H](Cc2ccccc2)CC(=O)N2CCC[C@H]2C(=O)N(C)[C@@H](CC(C)C)C(=O)N[C@@H](Cc2ccccc2)C(=O)N2CCC[C@H]2C1=O: PAMPA -5.33 (log10 cm/s)
* CC(C)C[C@@H]1C(=O)N(Cc2ccccc2)CC(=O)N2CCC[C@H]2C(=O)N(Cc2ccccc2)CC(=O)N[C@@H](Cc2ccccc2)C(=O)N2CCC[C@@H]2C(=O)N(C)[C@H](C)C(=O)N1C: PAMPA -5.84 (log10 cm/s)
* CC(C)C[C@@H]1NC(=O)[C@H]2CCCN2C(=O)[C@H](CC(C)C)N(C)C(=O)[C@@H](CC(C)C)N(C)C(=O)[C@@H](C)N(C)C(=O)[C@H](Cc2ccccc2)NC1=O: PAMPA -5.55 (log10 cm/s)
* CC(C)C[C@H]1C(=O)N2CCC[C@@H]2C(=O)N(C)[C@@H](CC(C)C)C(=O)N[C@@H](Cc2ccccc2)C(=O)N[C@H](C)C(=O)N(Cc2ccccc2)CC(=O)N1C: PAMPA -5.27 (log10 cm/s)
* CC(C)C[C@@H]1NC(=O)C[C@H](Cc2ccccc2)NC(=O)[C@H]2CCCN2C(=O)[C@H](Cc2ccccc2)NC(=O)[C@@H](CC(C)C)N(C)C(=O)[C@H]2CCCN2C(=O)[C@@H](CC(C)C)N(C)C1=O: PAMPA -5.39 (log10 cm/s)
* CC(C)C[C@@H]1C(=O)N[C@@H](Cc2ccccc2)CC(=O)N2CCC[C@@H]2C(=O)N(C)[C@@H](CC(C)C)C(=O)N[C@@H](Cc2ccccc2)C(=O)N2CCC[C@@H]2C(=O)N[C@H](C)C(=O)N1C: PAMPA -5.18 (log10 cm/s)
* CC(C)C[C@@H]1NC(=O)[C@@H](CC(C)C)N(C)C(=O)[C@H](C)N(C)C(=O)[C@H](Cc2ccccc2)NC(=O)CN(Cc2ccccc2)C(=O)[C@H]2CCCN2C1=O: PAMPA -5.19 (log10 cm/s)
* CC(C)C[C@@H]1NC(=O)[C@@H]2CCCN2C(=O)[C@@H](CC(C)C)NC(=O)CN(Cc2ccccc2)C(=O)C[C@H](Cc2ccccc2)NC(=O)[C@H]2CCCN2C(=O)[C@H](Cc2ccccc2)NC1=O: PAMPA -5.93 (log10 cm/s)
* CC(C)C[C@@H]1C(=O)N2CCC[C@H]2C(=O)N(C)[C@@H](CC(C)C)C(=O)N[C@@H](Cc2ccccc2)C(=O)N2CCC[C@@H]2C(=O)N(C)[C@H](C)C(=O)N(C)[C@@H](CC(C)C)C(=O)N1C: PAMPA -5.18 (log10 cm/s)
* CC(C)C[C@H]1NC(=O)[C@@H](C)NC(=O)[C@H](Cc2ccccc2)NC(=O)[C@H](CC(C)C)N(C)C(=O)[C@@H]2CCCN2C(=O)[C@H](CC(C)C)N(C)C1=O: PAMPA -5.96 (log10 cm/s)
* CCCN1CC(=O)N(C)[C@@H](CC(C)C)C(=O)N(C)[C@@H](CC(C)C)C(=O)N2CCC[C@@H]2C(=O)N(C)[C@@H](CC(C)C)C(=O)N[C@@H](Cc2ccccc2)C(=O)N2CCC[C@@H]2C1=O: PAMPA -4.87 (log10 cm/s)
* CC(C)C[C@H]1NC(=O)[C@H](C)NC(=O)[C@@H]2CCCN2C(=O)[C@H](Cc2ccccc2)NC(=O)[C@H](CC(C)C)N(C)C(=O)[C@H]2CCCN2C(=O)[C@H](CC(C)C)N(C)C1=O: PAMPA -5.78 (log10 cm/s)
* CC(C)C[C@@H]1NC(=O)[C@@H](C)N(C)C(=O)[C@H](Cc2ccccc2)NC(=O)CN(Cc2ccccc2)C(=O)[C@H]2CCCN2C(=O)[C@@H](CC(C)C)N(C)C1=O: PAMPA -5.30 (log10 cm/s)
* CC(C)C[C@@H]1C(=O)N(Cc2ccccc2)CC(=O)N2CCC[C@H]2C(=O)N[C@H](CC(C)C)C(=O)N[C@@H](Cc2ccccc2)C(=O)N(C)[C@H](C)C(=O)N1C: PAMPA -6.22 (log10 cm/s)
* CC(C)C[C@H]1NC(=O)[C@H](C)NC(=O)[C@@H]2CCCN2C(=O)[C@H](Cc2ccccc2)NC(=O)[C@H](CC(C)C)N(C)C(=O)[C@H]2CCCN2C(=O)CN(Cc2ccccc2)C1=O: PAMPA -6.20 (log10 cm/s)
* CC(C)C[C@@H]1C(=O)N[C@@H](Cc2ccccc2)C(=O)N2CCC[C@@H]2C(=O)N[C@@H](Cc2ccccc2)CC(=O)N(C)[C@@H](CC(C)C)C(=O)N[C@@H](Cc2ccccc2)CC(=O)N2CCC[C@@H]2C(=O)N1C: PAMPA -5.55 (log10 cm/s)
* CC(C)C[C@H]1NC(=O)[C@@H]2CCCN2C(=O)[C@H](CC(C)C)N(C)C(=O)[C@H](CC(C)C)N(C)C(=O)[C@H](C)N(C)C(=O)[C@H]2CCCN2C(=O)[C@H](Cc2ccccc2)NC1=O: PAMPA -5.73 (log10 cm/s)
* CC(C)C[C@H]1NC(=O)[C@@H]2CCCN2C(=O)CN(Cc2ccccc2)C(=O)[C@H](CC(C)C)N(C)C(=O)[C@H](C)NC(=O)[C@@H]2CCCN2C(=O)[C@H](Cc2ccccc2)NC1=O: PAMPA -5.98 (log10 cm/s)
* CCCN1CC(=O)N(C)[C@H](CC(C)C)C(=O)N(C)[C@@H](CC(C)C)C(=O)N2CCC[C@H]2C(=O)N(Cc2ccccc2)CC(=O)N[C@@H](Cc2ccccc2)C(=O)N2CCC[C@H]2C1=O: PAMPA -5.39 (log10 cm/s)
* CC(C)C[C@@H]1NC(=O)[C@H](C)NC(=O)[C@H](Cc2ccccc2)NC(=O)[C@@H](CC(C)C)NC(=O)[C@H]2CCCN2C(=O)[C@H](CC(C)C)NC1=O: PAMPA -5.14 (log10 cm/s)
* CC(C)C[C@@H]1NC(=O)[C@@H](CC(C)C)N(C)C(=O)[C@H](C)NC(=O)[C@H](Cc2ccccc2)NC(=O)CN(Cc2ccccc2)C(=O)[C@@H]2CCCN2C1=O: PAMPA -5.48 (log10 cm/s)

3 of these entries, quoted again:

compound	PAMPA (log10 cm/s)
CC(C)C[C@@H]1NC(=O)[C@@H](CC(C)C)N(C)C(=O)[C@H](C)N(C)C(=O)[C@H](Cc2ccccc2)NC(=O)CN(Cc2ccccc2)C(=O)[C@H]2CCCN2C1=O	-5.19
CC(C)C[C@H]1C(=O)N2CCC[C@@H]2C(=O)N(C)[C@@H](CC(C)C)C(=O)N[C@@H](Cc2ccccc2)C(=O)N[C@H](C)C(=O)N(Cc2ccccc2)CC(=O)N1C	-5.27
CC(C)C[C@@H]1NC(=O)[C@H]2CCCN2C(=O)[C@H](CC(C)C)N(C)C(=O)[C@@H](CC(C)C)N(C)C(=O)[C@@H](C)N(C)C(=O)[C@H](Cc2ccccc2)NC1=O	-5.55